Assay [1] concerns the target T1, Tyro3 (Homo sapiens (Human), UniProt Q06418). The assay can be described thus: biochemical.
Assay [2] addresses T2, Axl (Homo sapiens (Human), UniProt P30530). In words: biochemical.
In assay [3] the target is T1, Tyro3. Particulars: read-out: IC50 Tyro3.
The target of assay [4] is T2, Axl. The note with it: read-out: IC50 Axl.

Amino acid sequences for entries named in this document (tags omitted). Residues count along the entry.
UniProt Q06418, 41-890 limits assumed: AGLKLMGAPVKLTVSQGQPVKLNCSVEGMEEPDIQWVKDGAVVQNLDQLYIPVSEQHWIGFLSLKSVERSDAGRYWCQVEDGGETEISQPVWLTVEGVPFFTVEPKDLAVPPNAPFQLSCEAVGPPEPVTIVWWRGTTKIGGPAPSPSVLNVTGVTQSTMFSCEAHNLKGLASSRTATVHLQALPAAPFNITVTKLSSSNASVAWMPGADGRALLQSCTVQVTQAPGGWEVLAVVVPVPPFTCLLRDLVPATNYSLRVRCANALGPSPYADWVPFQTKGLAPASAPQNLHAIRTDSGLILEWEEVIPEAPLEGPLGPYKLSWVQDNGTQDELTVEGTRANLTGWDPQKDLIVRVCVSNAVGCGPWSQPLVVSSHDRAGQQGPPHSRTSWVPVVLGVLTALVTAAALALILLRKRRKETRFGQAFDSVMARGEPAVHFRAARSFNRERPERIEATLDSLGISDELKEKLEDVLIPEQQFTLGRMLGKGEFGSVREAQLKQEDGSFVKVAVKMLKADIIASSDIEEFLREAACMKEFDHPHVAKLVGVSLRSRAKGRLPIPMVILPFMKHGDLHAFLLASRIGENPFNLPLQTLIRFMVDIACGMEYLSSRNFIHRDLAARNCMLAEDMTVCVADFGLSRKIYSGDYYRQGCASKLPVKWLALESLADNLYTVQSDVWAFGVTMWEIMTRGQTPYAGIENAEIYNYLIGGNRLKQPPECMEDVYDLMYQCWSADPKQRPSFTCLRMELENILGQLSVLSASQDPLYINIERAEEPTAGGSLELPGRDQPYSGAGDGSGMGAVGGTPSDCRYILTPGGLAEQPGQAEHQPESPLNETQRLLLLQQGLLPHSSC
UniProt P30530, 26-894 limits assumed: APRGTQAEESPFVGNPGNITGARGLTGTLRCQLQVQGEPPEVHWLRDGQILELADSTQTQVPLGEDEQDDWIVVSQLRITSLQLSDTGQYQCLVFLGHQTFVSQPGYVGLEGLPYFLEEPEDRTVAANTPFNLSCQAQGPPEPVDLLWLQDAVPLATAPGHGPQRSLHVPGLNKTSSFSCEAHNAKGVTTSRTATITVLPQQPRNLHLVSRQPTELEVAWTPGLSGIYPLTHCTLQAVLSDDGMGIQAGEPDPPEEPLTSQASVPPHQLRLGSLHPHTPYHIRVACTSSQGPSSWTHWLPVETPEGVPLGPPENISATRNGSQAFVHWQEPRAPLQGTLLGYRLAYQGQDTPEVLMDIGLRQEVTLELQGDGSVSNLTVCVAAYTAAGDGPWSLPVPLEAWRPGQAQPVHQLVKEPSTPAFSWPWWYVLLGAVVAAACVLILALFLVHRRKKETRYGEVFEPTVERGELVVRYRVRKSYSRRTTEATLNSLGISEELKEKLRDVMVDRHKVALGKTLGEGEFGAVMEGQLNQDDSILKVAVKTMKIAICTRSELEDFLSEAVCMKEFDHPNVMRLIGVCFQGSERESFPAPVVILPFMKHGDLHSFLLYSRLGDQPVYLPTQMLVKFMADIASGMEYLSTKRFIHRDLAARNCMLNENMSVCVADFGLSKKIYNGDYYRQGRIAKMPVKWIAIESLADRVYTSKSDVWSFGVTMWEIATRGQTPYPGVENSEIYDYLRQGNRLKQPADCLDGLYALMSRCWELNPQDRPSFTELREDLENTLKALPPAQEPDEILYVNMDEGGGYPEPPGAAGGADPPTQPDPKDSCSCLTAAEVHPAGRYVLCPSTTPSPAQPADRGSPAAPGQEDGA

Read-outs that look alike come from different tables or passages of the source.

One may read the IC50 as the concentration that gives 50% inhibition.

On to `C=Cc1ccc(Nc2ncc(-c3ccccn3)c(N[C@H]3CC[C@H](O)CC3)n2)cc1` [UNC3204A], for which the results for the IC50 on Tyro3 [1] and against Axl [2] were 32 nM and 147 nM, respectively.

`O[C@H]1CC[C@H](Nc2nc(Nc3ccc(Br)cc3)ncc2-c2ccc(CN3CCCC3)cn2)CC1` [UNC4377A]: the IC50 on Tyro3 [3] worked out at 4.6 nM; on Axl [4] it was 2.8 nM.

`O[C@H]1CC[C@H](Nc2nc(Nc3ccc(C(F)(F)F)cc3)ncc2-c2ccc(CN3CCCC3)cn2)CC1` [UNC4243A]: the IC50 at Tyro3 [3] amounted to 3.8 nM; at Axl [4] it was 13 nM.

With `CCCCNc1ncc(-c2cccc(CN3CCOCC3)n2)c(N[C@H]2CC[C@H](O)CC2)n1` [UNC3125A], the IC50 is 259 nM at Tyro3 [1] and 1130 nM at Axl [2].

For the compound `C#Cc1ccccc1Nc1ncc(-c2ccccn2)c(N[C@H]2CC[C@H](O)CC2)n1` [UNC3206A], the IC50 worked out at 15100 nM on Tyro3 [1] and 30000 nM at Axl [2].

Regarding `CCCCNc1ncc(-c2ccc(C3(N4CCN(C)CC4)CCC3)cn2)c(NC2CCC(O)CC2)n1` (centres unmarked) [UNC3669A], the IC50 amounted to 7.7 nM at Tyro3 [3] and 26 nM at Axl [4].

Regarding `Cc1ccc(Nc2ncc(-c3ccc(CN4CCCC4)cn3)c(N[C@H]3CC[C@H](O)CC3)n2)cc1` [UNC4242A], the figures for the IC50 on Tyro3 [3] and on Axl [4] were 1.2 nM and 6.7 nM, respectively.

For the compound `COc1ccc(Nc2ncc(-c3ccc(CN4CCCC4)cn3)c(N[C@H]3CC[C@H](O)CC3)n2)cc1` [UNC4240A], the values for the IC50 at Tyro3 [3] and on Axl [4] were 2.4 nM and 11 nM, respectively.

Consider `CCCCNc1ncc(C(=O)NC2CCN(C)CC2)c(N[C@H]2CC[C@H](O)CC2)n1` [UNC2601A], for which the results for the IC50 at Tyro3 [3] and at Axl [4] were 249 nM and 618 nM, respectively.

On Tyro3 [1], `O[C@H]1CC[C@H](Nc2nc(Nc3cccc4ccccc34)ncc2-c2ccccn2)CC1` [UNC3205A] had an IC50 of 50 nM.

For `CCCCNc1ncc(-c2ccc(CNCC34CC5CC(CC(C5)C3)C4)cn2)c(N[C@H]2CC[C@H](O)CC2)n1` [UNC4103A], the IC50 on Tyro3 [3] was 1.3 nM; at Axl [4], 4.4 nM.

Regarding `O[C@H]1CC[C@H](Nc2nc(Nc3ccccn3)ncc2-c2ccccn2)CC1` [UNC3224A], the results for the IC50 against Tyro3 [1] and on Axl [2] were 81 nM and 30000 nM, respectively.

Regarding `O[C@H]1CC[C@H](Nc2nc(Nc3ccc(Cl)cc3)ncc2-c2ccc(CN3CCCC3)cn2)CC1` [UNC4373A], the IC50 on Tyro3 [3] came out at 4.5 nM; at Axl [4], 2.7 nM.

Regarding `O[C@H]1CC[C@H](Nc2nc(Nc3ccc4ccccc4c3)ncc2-c2ccccn2)CC1` [UNC3207A], the IC50 was found to be 38 nM on Tyro3 [1] and 256 nM at Axl [2].

For `N#Cc1ccc(Nc2ncc(-c3ccc(CN4CCCC4)cn3)c(N[C@H]3CC[C@H](O)CC3)n2)cc1` [UNC4372A], the IC50 against Tyro3 [1] amounted to 3.6 nM; against Axl [2], 3.9 nM.

As to `C#Cc1cccc(Nc2ncc(-c3ccccn3)c(N[C@H]3CC[C@H](O)CC3)n2)c1` [UNC3223A], the IC50 is 2.6 nM against Tyro3 [1] and 164 nM at Axl [2].

With `CCCCNc1ncc(-c2ccc(C(=O)N3CCN(C)CC3)cn2)c(N[C@H]2CC[C@H](O)CC2)n1` [UNC3027A], the figures for the IC50 on Tyro3 [1] and on Axl [2] were 31 nM and 125 nM, respectively.

`O[C@H]1CC[C@H](Nc2nc(Nc3ccccc3F)ncc2-c2ccc(CN3CCCC3)cn2)CC1` [UNC4244A]: the IC50 on Tyro3 [3] was 3.2 nM; on Axl [4], 93 nM.

The values above are taken from US9649309B2 (priority 2014, dated 2017).
